These are literature values, as cited in patent publication US8642009B2, “Diagnostic system for the detection of skin cancer” (priority 2005, dated 2014).

Amino acid sequences for entries named in this document (tags omitted). Residues count along the entry.
UniProt P05106, 27-788: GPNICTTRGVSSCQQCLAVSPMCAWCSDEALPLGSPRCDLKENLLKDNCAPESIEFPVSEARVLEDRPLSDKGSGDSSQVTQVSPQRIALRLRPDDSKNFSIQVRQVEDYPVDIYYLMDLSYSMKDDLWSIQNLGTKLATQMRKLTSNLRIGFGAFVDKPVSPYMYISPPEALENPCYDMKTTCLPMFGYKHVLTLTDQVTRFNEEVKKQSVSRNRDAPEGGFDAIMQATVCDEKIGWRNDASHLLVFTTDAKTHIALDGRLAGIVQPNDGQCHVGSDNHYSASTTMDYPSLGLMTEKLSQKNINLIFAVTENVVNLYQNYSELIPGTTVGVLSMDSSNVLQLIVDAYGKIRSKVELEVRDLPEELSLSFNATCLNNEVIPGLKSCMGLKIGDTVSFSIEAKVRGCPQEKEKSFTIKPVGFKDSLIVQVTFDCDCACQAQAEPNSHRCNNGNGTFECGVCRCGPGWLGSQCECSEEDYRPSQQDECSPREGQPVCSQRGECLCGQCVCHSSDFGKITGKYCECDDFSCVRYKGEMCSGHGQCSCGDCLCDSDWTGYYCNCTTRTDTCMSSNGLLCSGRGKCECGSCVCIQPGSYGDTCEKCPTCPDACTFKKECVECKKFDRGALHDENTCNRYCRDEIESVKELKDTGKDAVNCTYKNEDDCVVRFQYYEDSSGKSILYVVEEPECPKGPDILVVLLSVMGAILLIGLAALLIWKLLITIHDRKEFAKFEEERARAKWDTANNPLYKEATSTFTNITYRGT
UniProt P06756, 891-1048 partner limits assumed: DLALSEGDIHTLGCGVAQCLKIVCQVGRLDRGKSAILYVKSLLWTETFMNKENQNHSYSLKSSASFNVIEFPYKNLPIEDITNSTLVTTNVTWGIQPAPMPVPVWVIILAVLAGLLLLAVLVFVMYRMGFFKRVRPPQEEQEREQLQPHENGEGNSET
UniProt P06756, 31-889 limits assumed: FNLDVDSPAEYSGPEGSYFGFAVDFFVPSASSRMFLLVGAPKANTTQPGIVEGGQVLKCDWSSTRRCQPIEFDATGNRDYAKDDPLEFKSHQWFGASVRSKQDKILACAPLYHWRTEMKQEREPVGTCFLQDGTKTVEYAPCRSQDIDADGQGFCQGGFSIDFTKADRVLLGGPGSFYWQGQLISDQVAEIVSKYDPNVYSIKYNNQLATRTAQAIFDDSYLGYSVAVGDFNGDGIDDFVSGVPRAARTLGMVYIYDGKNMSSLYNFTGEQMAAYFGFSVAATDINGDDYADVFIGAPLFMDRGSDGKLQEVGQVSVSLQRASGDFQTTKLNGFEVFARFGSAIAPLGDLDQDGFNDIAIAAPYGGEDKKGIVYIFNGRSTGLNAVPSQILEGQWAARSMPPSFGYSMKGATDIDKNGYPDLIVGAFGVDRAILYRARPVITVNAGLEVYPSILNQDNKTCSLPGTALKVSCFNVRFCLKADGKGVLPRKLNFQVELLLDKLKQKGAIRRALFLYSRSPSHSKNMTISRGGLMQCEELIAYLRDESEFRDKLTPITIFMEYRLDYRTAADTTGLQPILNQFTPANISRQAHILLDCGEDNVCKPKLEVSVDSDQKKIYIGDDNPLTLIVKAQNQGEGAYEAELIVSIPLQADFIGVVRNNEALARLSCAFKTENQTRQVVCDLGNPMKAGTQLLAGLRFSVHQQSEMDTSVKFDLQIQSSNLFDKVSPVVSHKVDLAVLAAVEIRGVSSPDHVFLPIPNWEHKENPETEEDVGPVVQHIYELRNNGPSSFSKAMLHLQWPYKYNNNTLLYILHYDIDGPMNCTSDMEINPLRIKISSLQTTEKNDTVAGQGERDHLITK

Marks after values point to notes of the source that are not given here.

Series [1] has as its target αvβ3 (Homo sapiens, UniProt P05106+P06756).
Series [2] has as its system U87MG human glioblastoma. The note with it: U87MG tumour model, 120 min p.i.

Broadly, the IC50 is the point on the concentration scale where inhibition reaches its midpoint. As to DOTA-E[E-c(RGDyK)z]2, the IC50 in series [1] is 48 nM. In series [2], the Tumour/blood is 36^g ^ and the Tumour/muscle is listed as 12^g ^.
